Measured values taken from patent US11535630B2, “Apelin receptor (APJ) agonists and uses thereof” (Research Triangle Institute, priority 2015, dated 2022).

Protein sequences, listed by entry. Tags and fused reporters are not part of them.
UniProt P35414, whole entry: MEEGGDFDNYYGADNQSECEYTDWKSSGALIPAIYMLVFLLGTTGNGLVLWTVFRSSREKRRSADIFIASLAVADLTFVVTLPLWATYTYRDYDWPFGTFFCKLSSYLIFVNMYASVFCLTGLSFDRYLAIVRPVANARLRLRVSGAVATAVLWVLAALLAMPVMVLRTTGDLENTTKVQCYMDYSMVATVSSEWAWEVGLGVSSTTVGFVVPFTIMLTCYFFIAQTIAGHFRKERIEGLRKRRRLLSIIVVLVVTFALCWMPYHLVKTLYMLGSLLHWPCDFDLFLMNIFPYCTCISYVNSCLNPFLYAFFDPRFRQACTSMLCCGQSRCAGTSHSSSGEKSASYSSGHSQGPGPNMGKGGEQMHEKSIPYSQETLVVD

Target: apelin receptor (APJ) (Homo sapiens, UniProt P35414)
Test: In vitro apelin agonist activity (methods of Giddings et al., Apelin-13 as positive control)
Assay type: cell-based

EC50 (read-out: EC50 (nM) Ave) [nM]	SMILES	EC50 (read-out: EC50 (nM) Ave, tested form: HCl) [nM]
–	C[C@H](C(=O)O)[C@H](CCN1CC2C(C1)C2(F)F)NC(=O)c1cc(-c2ccccc2C(F)(F)F)n(C2CCCC2)n1 (stereo partly shown)	87
5550	COCCN(C)C(=O)[C@H](COC(C)(C)C)NC(=O)c1cc(-c2ccccc2C(F)(F)F)n(C2CCCC2)n1	–
61	O=C(N[C@@H](CCN1CC2C(C1)C2(F)F)Cc1nnn[nH]1)c1cc(-c2ccccc2C(F)(F)F)n(C2CCCC2)n1 (stereo partly shown)	–

SMILES	EC50 (read-out: EC50 (nM) Ave) [nM]	EC50 (read-out: EC50 (nM) Ave, tested form: HCl) [nM]
O=C(N[C@@H](CCN1CCCC(F)(F)C1)Cc1nnc[nH]1)c1cc(-c2ccccc2C(F)(F)F)n(C2CCCC2)n1	21	–

Where two headings read alike, the source gives them in different places.
